Key:
[1] = target: T1, α7-nicotinic acetylcholine receptor (Rattus norvegicus, UniProt Q05941); type: binding
[2] = target: T1, α7-nicotinic acetylcholine receptor; settings: cited from earlier work

Chains of the proteins cited; added tags and fusions are not shown. Residues count along the entry.
UniProt Q05941, 23-502: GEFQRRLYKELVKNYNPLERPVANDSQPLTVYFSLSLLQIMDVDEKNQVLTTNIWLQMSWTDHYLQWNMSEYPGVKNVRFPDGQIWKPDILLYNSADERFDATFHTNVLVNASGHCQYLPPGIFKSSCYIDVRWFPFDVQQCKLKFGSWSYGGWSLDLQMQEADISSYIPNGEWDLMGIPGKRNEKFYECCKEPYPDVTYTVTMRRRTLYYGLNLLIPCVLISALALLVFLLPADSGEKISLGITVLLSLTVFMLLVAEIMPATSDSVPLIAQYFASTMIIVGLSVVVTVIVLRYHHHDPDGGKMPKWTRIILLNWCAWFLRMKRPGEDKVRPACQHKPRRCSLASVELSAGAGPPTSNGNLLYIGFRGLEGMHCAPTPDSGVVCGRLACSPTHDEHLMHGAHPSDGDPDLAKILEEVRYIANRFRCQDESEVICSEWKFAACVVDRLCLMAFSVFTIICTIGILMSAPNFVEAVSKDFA

With `CN1CCC[C@H]1c1cccnc1` [(S)-nicotine, reference compound] as the molecule, how does the “Displacement of [3H]-epibatidine” value [1] read?
Its value is “fully displaced”.

Which Kd [2] does the source give for “[^125I]-α-bungarotoxin [[^125I]-α-bungarotoxin]” here?
Its Kd is 0.38 nM.

Source: publication PMC3534778 (European journal of pharmacology, 2012)
